Data: patent publication US20250057858A1, “COMPOSITIONS AND METHODS FOR TREATING NEUROLOGICAL DISORDERS WITH COMBINATION PRODUCTS” (Neurotech International Ltd, priority 2021, published 2025)

Test system: COX-2
Assay: COX-2 protein, BV2 microglia, NTI164 plus celecoxib (Example 7)
Format: cell-based
Details: Celebrex 5 uM; NTI164 7.5; Interleukin & Interferon activation =1

Cc1ccc(-c2cc(C(F)(F)F)nn2-c2ccc(S(N)(=O)=O)cc2)cc1 [Celebrex, celecoxib]
COX-2 Protein: 0.768
